Source: BindingDB's records for doi:10.1021/jm010117d (Glaxosmithkline, 2001)

Molecular target: Cyclin-A2/Cyclin-dependent kinase 2 (Homo sapiens, UniProt P24941)

## CNS(=O)(=O)c1ccc(N=CC2C(=O)Nc3ccccc32)cc1 (stereo unspecified) [N-Methyl-4-{[(2-oxo-1,2-dihydro-3H-indol-3-ylidene)-methyl]amino}benzenesulfonamide]
  IC50: 560 nM
